Values quoted from earlier work, collected in paper PMC8393936.

Molecular target: calcineurin catalytic subunit (Homo sapiens) (UniProt Q08209)
Assay: microscale thermophoresis

Kd: 6.9 µM
Substance: alpha-synuclein (from UniProt P37840)
